Measurements published in US20260174721A1, “AGENT FOR RESTORING METAL HOMEOSTASIS” (Oxford Antibiotic Group GmbH, priority 2022, published 2026).

Experiments:
Format in all cases: in vivo
[1] = tested on: transgenic C. elegans strain NL5901; assay: α-synuclein test system: reduction of α-synuclein-GFP expression in transgenic C. elegans strain NL5901 (Parkinson testing); conditions: Caenorhabditis elegans, read-out: Parkinson: concentration range in which a reduction in α-synuclein expression was detectable, NL5901, GFP readout 24 to 48 hours; tested at 1 mg/ml, 100 μg/ml, 10 μg/ml; — = no effect even at 1 mg/ml
Method: (§1) The same substances as above were tested in a 96-well procedure in the initially mentioned screening assay using the nematode Caenorhabditis elegans (Pretsch et al., see above) in a standardized α-synuclein test system using the transgenic C. elegans strain NL5901 for their potential suitability as an agent for treating Parkinson's disease. This worm strain expresses human α-synuclein bound to green fluorescent protein (GFP) in all muscle cells. GFP labeling allows a direct detection of expressed protein levels using a multiplate reader for 24 to 48 hours.
For this purpose, the substances were again tested at concentrations of 1 mg/ml, 100 μg/ml, and 10 μg/ml, but this time in comparison to the initially mentioned Parkinson therapeutic agent levodopa as a control.

[2] = tested on: transgenic C. elegans strain CL2659; assay: β-amyloid test system: delay of paralysis in transgenic C. elegans strain CL2659 (Alzheimer testing); conditions: Caenorhabditis elegans, 48 h, read-out: Alzheimer: concentration range in which a delay in paralysis was observed, CL2659 stage L3 larvae, 48 hours; tested at 1 mg/ml, 100 μg/ml, 10 μg/ml; — = no effect even at 1 mg/ml
Method: For this purpose, stage L3 worm larvae were used at a density of 10-20 worms per well. The expression of β-amyloid in the muscle cells was induced by increasing the temperature, and the associated paralysis was recorded at regular intervals until the end of the test after 48 hours.
(§2) For this purpose, the above substances were tested at concentrations of 1 mg/ml, 100 μg/ml, and 10 μg/ml in comparison with quercetin as a […] control.

[3] = tested on: Caenorhabditis elegans; assay: C. elegans nematode assay, overall rating over the Alzheimer and Parkinson tests; conditions: read-out: Score, rating from the effective concentration in both tests
Method: The substances (1) to (41) and (101) to (108), prepared in the above synthesis examples or purchased, were tested for their potential suitability as an agent for treating Alzheimer's disease in a 96-well procedure in the initially mentioned screening assay using the nematode Caenorhabditis elegans (Pretsch et al., see above) in a standardized β-amyloid test system using the transgenic C. elegans strain CL2659. For this purpose, stage L3 worm larvae were used at a density of 10-20 worms per well. The expression of β-amyloid in the muscle cells was induced by increasing the temperature, and the associated paralysis was recorded at regular intervals until the end of the test after 48 hours.
as §2
as §1, with “This worm strain expresses human α-synuclein bound to green fluorescent protein (GFP) in all muscle cells.” left out, “hours. […]” for “hours.”

Measured: minimal effective concentration

O=C(O)CC(=O)OC12CC3CC(CC(C3)C1)C2 [(8), malonic acid adamantan-1-yl ester]
> 100 µg/mL: all assays above
